Publication PMC3961306, “Comparison of the Cancer Gene Targeting and Biochemical Selectivities of All Targeted Kinase Inhibitors Approved for Clinical Use” (PLoS ONE, 2014)

Experiments:
Experiment in all cases: Kinase profiling in a biochemical assay panel (mobility shift assays and ELISA), %-inhibition at 1 μM; selectivity entropy
[1] = molecular target: panel of more than 300 wild-type and mutant kinases (313 kinase panel) (Homo sapiens, UniProt P48730); conditions: kinase CK1δ; 1 μM compound
[2] = molecular target: panel of more than 300 wild-type and mutant kinases (313 kinase panel) (Homo sapiens, UniProt O00444); conditions: 1 µM
[3] = molecular target: panel of more than 300 wild-type and mutant kinases (313 kinase panel) (Homo sapiens, UniProt P23458); conditions: 1 µM
[4] = molecular target: panel of more than 300 wild-type and mutant kinases (313 kinase panel) (Homo sapiens, UniProt P43405); conditions: 1 µM
[5] = molecular target: panel of more than 300 wild-type and mutant kinases (313 kinase panel) (Homo sapiens, UniProt P09619); conditions: 1 µM
[6] = molecular target: panel of more than 300 wild-type and mutant kinases (313 kinase panel) (Homo sapiens, UniProt O60674); conditions: 1 µM
[7] = molecular target: panel of more than 300 wild-type and mutant kinases (313 kinase panel) (Homo sapiens, UniProt P06239); conditions: 1 µM
[8] = molecular target: panel of more than 300 wild-type and mutant kinases (313 kinase panel) (Homo sapiens, UniProt Q9UM73); conditions: 1 µM
[9] = molecular target: panel of more than 300 wild-type and mutant kinases (313 kinase panel) (Homo sapiens, UniProt Q13470); conditions: 1 µM
[10] = molecular target: panel of more than 300 wild-type and mutant kinases (313 kinase panel) (Homo sapiens, UniProt P05129); conditions: 1 µM
[11] = molecular target: panel of more than 300 wild-type and mutant kinases (313 kinase panel) (Homo sapiens, UniProt O14920); conditions: 1 µM
[12] = molecular target: panel of more than 300 wild-type and mutant kinases (313 kinase panel) (Homo sapiens, UniProt P04629); conditions: 1 µM
[13] = molecular target: panel of more than 300 wild-type and mutant kinases (313 kinase panel) (Homo sapiens, UniProt Q96PF2); conditions: 1 µM
[14] = molecular target: panel of more than 300 wild-type and mutant kinases (313 kinase panel) (Homo sapiens, UniProt P42681); conditions: 1 µM
[15] = molecular target: panel of more than 300 wild-type and mutant kinases (313 kinase panel) (Homo sapiens, UniProt P22612); conditions: 1 µM
[16] = molecular target: panel of more than 300 wild-type and mutant kinases (313 kinase panel) (Homo sapiens, UniProt P21709); conditions: 1 µM
[17] = molecular target: panel of more than 300 wild-type and mutant kinases (313 kinase panel) (Homo sapiens, UniProt Q12852); conditions: 1 µM
[18] = molecular target: panel of more than 300 wild-type and mutant kinases (313 kinase panel) (Homo sapiens, UniProt P07948); conditions: 1 µM
[19] = molecular target: panel of more than 300 wild-type and mutant kinases (313 kinase panel) (Homo sapiens, UniProt P08922); conditions: 1 µM
[20] = molecular target: panel of more than 300 wild-type and mutant kinases (313 kinase panel) (Homo sapiens, UniProt P54646); conditions: 1 µM
[21] = molecular target: panel of more than 300 wild-type and mutant kinases (313 kinase panel) (Homo sapiens, UniProt Q9UKE5); conditions: 1 µM
[22] = molecular target: panel of more than 300 wild-type and mutant kinases (313 kinase panel) (Homo sapiens, UniProt O43781); conditions: 1 µM
[23] = molecular target: panel of more than 300 wild-type and mutant kinases (313 kinase panel) (Homo sapiens, UniProt Q9H093); conditions: 1 µM

Question: For `CNC(=O)c1ccccc1Sc1ccc2c(/C=C/c3ccccn3)n[nH]c2c1` [axitinib], which “%-inhibition, CK1δ” value [1] is on record?
Answer: -0.18%

Question: How did the “%-inhibition of PLK4” value [2] turn out when `COc1cc2ncnc(Nc3ccc(F)c(Cl)c3)c2cc1OCCCN1CCOCC1` [gefitinib] was run?
Answer: 7%

Question: And the “%-inhibition of JAK1” value [3]?
Answer: 4.61%

Question: What about the “%-inhibition of SYK” value [4] of the same compound?
Answer: 5%

Question: And the “%-inhibition of PDGFRβ” value [5]?
Answer: 57%

Question: And the “%-inhibition of JAK2” value [6]?
Answer: 5%

Question: Which “%-inhibition of LCK” value [7] does the source give for `C[C@@H]1CCN(C(=O)CC#N)C[C@@H]1N(C)c1ncnc2[nH]ccc12` [tofacitinib] here?
Answer: 36%

Question: What about the “%-inhibition, ALK” value [8] of the same compound?
Answer: 0.874%

Question: And the “%-inhibition of TNK1” value [9]?
Answer: 88%

Question: What about the “%-inhibition of PKCγ” value [10] of the same compound?
Answer: 0.662%

Question: What about the “%-inhibition of IKKβ” value [11] of the same compound?
Answer: -4%

Question: And the “%-inhibition of TRKA” value [12]?
Answer: 13%

Question: What about the “%-inhibition of TSSK2” value [13] of the same compound?
Answer: -10%

Question: What about the “%-inhibition of TXK” value [14] of the same compound?
Answer: -1.78%

Question: What about the “%-inhibition of PKACγ” value [15] of the same compound?
Answer: -1.84%

Question: What about the “%-inhibition of EPHA1” value [16] of the same compound?
Answer: -11%

Question: What about the “%-inhibition of DLK” value [17] of the same compound?
Answer: -24%

Question: What about the “%-inhibition of LYNa” value [18] of the same compound?
Answer: 12%

Question: What about the “%-inhibition of ROS” value [19] of the same compound?
Answer: 4%

Question: What about the “%-inhibition, AMPKα2/β1/γ1” value [20] of the same compound?
Answer: -3.37%

Question: What about the “%-inhibition of TNIK” value [21] of the same compound?
Answer: -1.89%

Question: What about the “%-inhibition of DYRK3” value [22] of the same compound?
Answer: -8%

Question: What about the “%-inhibition of NuaK2” value [23] of the same compound?
Answer: 57%
